Reference: PubChem BioAssay AID1259374 (The Scripps Research Institute Molecular Screening Center, 2018)
Only a part is listed here, and it is no random draw. Calls of active or inactive are those of the source. Rule as the data show it: active = inhibition above about 50%; inactive = the rest.

Sequences of proteins named here, by UniProt entry; tags and fusion partners are left off. A change or cut given only in a name is not applied to a line headed by its entry.
UniProt O75030: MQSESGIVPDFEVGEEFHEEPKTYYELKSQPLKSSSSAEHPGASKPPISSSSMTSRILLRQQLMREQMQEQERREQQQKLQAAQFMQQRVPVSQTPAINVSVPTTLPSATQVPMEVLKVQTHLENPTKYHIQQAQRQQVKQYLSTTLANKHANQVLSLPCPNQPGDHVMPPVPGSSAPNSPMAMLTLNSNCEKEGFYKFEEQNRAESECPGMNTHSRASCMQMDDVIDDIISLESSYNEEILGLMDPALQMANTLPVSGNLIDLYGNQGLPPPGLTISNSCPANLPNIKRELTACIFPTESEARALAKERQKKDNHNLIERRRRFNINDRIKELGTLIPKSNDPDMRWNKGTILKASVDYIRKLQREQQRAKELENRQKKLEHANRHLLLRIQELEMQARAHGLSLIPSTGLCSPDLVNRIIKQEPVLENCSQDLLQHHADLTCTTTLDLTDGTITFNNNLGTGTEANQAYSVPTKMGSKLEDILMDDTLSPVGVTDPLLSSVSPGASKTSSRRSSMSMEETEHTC

These compounds were tested against Microphthalmia-associated transcription factor (Homo sapiens) (UniProt O75030) (assay: MITF inhibitors, primary screen, biochemical, AlphaScreen, human (AID 1259374;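 also: 0% = vehicle wells with protein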)). Conditions: AlphaScreen MITF homodimerization, bead proximity signal; at 2.6 µM; hits give high values.

Row | SMILES | inhibition
1 | Cc1cc(NP(=O)(Oc2ccccc2)Oc2ccccc2)no1 | inactive: -11.5%
2 | CCN(CC)C(=O)NP(=O)(Oc1ccccc1)Oc1ccccc1 | inactive: 7.81%
3 | Nc1c([N+](=O)[O-])cc([N+](=O)[O-])c(Nc2ccc(S(N)(=O)=O)cc2)c1[N+](=O)[O-] | inactive: -2.91%
4 | O=C(Cc1ccc(F)cc1)N(Cc1cccnc1)C1CCN(CCc2ccccn2)CC1 | inactive: 2.7%
5 | O=C(COC(=O)c1ccc([N+](=O)[O-])cc1[N+](=O)[O-])c1ccc([N+](=O)[O-])cc1 | inactive: -1.27%
6 | Cc1cc(NP(=O)(/C=C(\Cl)c2ccccc2)/C=C(\Cl)c2ccccc2)n[nH]1 | inactive: 8.15%
7 | COc1cc(NC(=O)COC(=O)C(O)(c2ccccc2)c2ccccc2)cc(OC)c1 | inactive: 4.06%
8 | COc1ccc(CCN2CCC(N(Cc3cccnc3)C(=O)NC(C)C)CC2)cc1 | inactive: 13.8%
9 | O=C(Nc1ccncc1[N+](=O)[O-])c1ccc([N+](=O)[O-])cc1[N+](=O)[O-] | inactive: 3.32%
10 | COc1ccc(NC(=O)c2cc([N+](=O)[O-])cc([N+](=O)[O-])c2)c([N+](=O)[O-])c1 | inactive: 10.2%
11 | CC(C)OP(=O)(OC(C)C)C(=O)c1ccccc1Cl | inactive: 6.78%
12 | CCCCOP(=S)(CC(=O)N(CC)CC)OCCCC | inactive: 1.61%
13 | CC(C)COP(=O)(Nc1ccc(Br)cc1)OCC(C)C | inactive: -4.38%
14 | CCN1C(=O)N(c2ccccc2)P(=S)(OC)c2cc3c(cc21)OCCO3 (centres undefined) | inactive: 13.4%
15 | O=C(CF)NC(Sc1ccccc1)C(Cl)(Cl)Cl (centres undefined) | inactive: 2.99%
16 | Cc1cc(SC(NC=O)C(Cl)(Cl)Cl)ncn1 (centres undefined) | inactive: -1.65%
17 | Cc1sc2nc3n(c(=O)c2c1C)CC(CI)S3 (centres undefined) | inactive: -1.7%
18 | O=C(Cc1ccc(F)cc1)N(Cc1ccco1)C1CCN(CCc2cccs2)CC1 | inactive: -4.37%
19 | CC(C)OP(=O)(Nc1nc2ccccc2[nH]1)OC(C)C | inactive: 5.65%
20 | O=[N+]([O-])c1ccc(-c2nnc(SCCCl)o2)cc1 | inactive: -9.2%
21 | CC(C)(C)C(=O)CSc1nc2ccccc2[nH]1 | inactive: 1.34%
22 | O=[N+]([O-])c1cccc(Nc2ccc([N+](=O)[O-])cc2[N+](=O)[O-])c1 | inactive: 26.5%
23 | CCCOc1ccc(S(=O)(=O)N(CCCl)CCCl)cc1 | inactive: 2.76%
24 | CCOP(=S)(OCC)SCC(=O)NC(C)C(=O)O (centres undefined) | inactive: -16.2%

Row | SMILES | inhibition
25 | Nc1nonc1OCCOc1nonc1N | inactive: 13.6%
26 | O=C(NNC(=O)c1ccncc1)NP1Oc2ccccc2O1 | inactive: 0.85%
27 | O=[N+]([O-])c1ccc2no[n+]([O-])c2c1 | inactive: -8.28%
28 | O=[N+]([O-])c1cc([N+](=O)[O-])c(Nc2ccccc2)c([N+](=O)[O-])n1 | inactive: 1.89%
29 | CN(C)CCCN(C)Cc1cc2ccccc2o1 | inactive: 2.03%
30 | COC(=O)N(c1ccc(OC)cc1)P1(=S)OCC(C)O1 (centres undefined) | inactive: -4.1%
31 | CC(C)NC(=O)NP(=O)(Oc1ccccc1)Oc1ccccc1 | inactive: 8.57%
32 | CCN(CCCl)c1ccc(C=C(C#N)C#N)c(C)c1 | inactive: -5.67%
33 | COP1(=S)N=C2c3ccccc3CN2c2cc(N(C)C)ccc21 (centres undefined) | inactive: 17.9%
34 | O=[N+]([O-])c1ccc(/C=C/C=N/Nc2ccc([N+](=O)[O-])cc2[N+](=O)[O-])cc1 | inactive: -13.1%
35 | CC(C)OP(=O)(NC(C)(C)C)C(Cl)Cl (centres undefined) | inactive: 0.2%
36 | CC(C)OP(=O)(OC(C)C)C(=O)c1ccc(F)cc1 | inactive: 4.12%
37 | O=[N+]([O-])c1cc([N+](=O)[O-])c2[nH]ncc2c1 | inactive: 9.22%
38 | CCOP(=O)(OCC)C(=O)c1ccc(OC)cc1 | inactive: 8.63%
39 | O=C(Cn1cnc([N+](=O)[O-])n1)NCCO[N+](=O)[O-] | inactive: -10.8%
40 | O=C(c1cccnc1)N(Cc1ccco1)C1CCN(CCc2ccc(Cl)cc2)CC1 | inactive: 1.97%
41 | O=P1(Nc2nc(-c3ccccc3)cs2)C=C(c2ccccc2)OC(c2ccccc2)=C1 | inactive: 39.9%
42 | CCCOP(=O)(OCCC)O/C(C)=C/SC#N | inactive: 13.3%
43 | ICC1CN=C(Nc2ncccn2)S1 (centres undefined) | inactive: -16.7%
44 | CC(=O)N(Cc1cccnc1)C1CCN(CCc2ccccn2)CC1 | inactive: 1.36%
45 | O=[N+]([O-])c1ccc(N/N=C/c2cc3c(cc2[N+](=O)[O-])OCO3)c([N+](=O)[O-])c1 | inactive: -5.81%
46 | O=C(c1cccnc1)N(Cc1ccco1)C1CCN(CCc2cccs2)CC1 | inactive: -0.19%
47 | O=C(Oc1ccc([N+](=O)[O-])cc1[N+](=O)[O-])c1ccc(Cl)cc1[N+](=O)[O-] | inactive: 6.9%
48 | OP1(c2ccccc2)=NC(c2ccccc2)=NC(C(Cl)(Cl)Cl)=N1 (centres undefined) | inactive: -6.08%

Row | SMILES | inhibition
49 | CCOP(=S)(OCC)C1(C#N)CCCC1 | inactive: 14.5%
50 | CCOP(=O)(OCC)SCC(=O)NCC(=O)O | inactive: 18.4%
51 | CC(C)COP(=O)(Nc1cccc(F)c1)OCC(C)C | inactive: -1.16%
52 | CC1CN(c2ccc([N+](=O)[O-])cc2[N+](=O)[O-])CCN1c1ccc([N+](=O)[O-])cc1[N+](=O)[O-] (centres undefined) | inactive: 11.7%
53 | O=C(Nc1nnc(-c2cccc([N+](=O)[O-])c2)s1)c1ccc([N+](=O)[O-])cc1[N+](=O)[O-] | inactive: -6.99%
54 | CCOP(=S)(OCC)SCC(=O)NC(C)C(=O)NC (centres undefined) | inactive: -12.5%
55 | COc1ccc(C)cc1NC(=O)N(Cc1ccco1)C1CCN(CCc2ccccn2)CC1 | inactive: 15.9%
56 | Cc1cc(=O)[nH]c(N[N+](=O)[O-])n1 | inactive: -4.69%
57 | CN(C)P1(=O)Nc2ccccc2S1 (centres undefined) | inactive: 13.4%
58 | COc1ccc(CCN2CCC(N(Cc3cccnc3)C(C)=O)CC2)cc1 | inactive: -19.4%
59 | COP(=O)(OC)C(NC(=O)c1ccc(C)cc1)=C(Cl)Cl | inactive: 11.2%
60 | Cc1cccc(NP(=O)(c2ccccc2)c2ccccc2)n1 | inactive: -7.53%
61 | O=[N+]([O-])c1ccc(C(O)C(CO)Nc2ccc([N+](=O)[O-])cc2[N+](=O)[O-])cc1 (centres undefined) | inactive: 4.58%
62 | O=C(COC(=O)C(O)(c1ccccc1)c1ccccc1)NCC(F)(F)F | inactive: 11.1%
63 | BrCC1CN=C(Nc2ccccc2Br)S1 (centres undefined) | inactive: 17.9%
64 | CC(C)OP(=O)(OC(C)C)C(=O)c1ccccc1 | inactive: -16.4%
65 | c1ccc2nc(-c3nc4ccccc4[nH]3)ccc2c1 | inactive: 0.41%
66 | O=C(N/N=C\c1ccc([N+](=O)[O-])cc1)c1cc([N+](=O)[O-])cc([N+](=O)[O-])c1O | inactive: 7.99%
67 | CCOC(=O)C(C(=O)OCC)C(O)c1c([N+](=O)[O-])cc([N+](=O)[O-])cc1[N+](=O)[O-] (centres undefined) | inactive: 3.52%
68 | Cc1ccc(NCCc2c([N+](=O)[O-])cc([N+](=O)[O-])cc2[N+](=O)[O-])cc1 | inactive: 12.9%
69 | O=C(Nc1cccc([N+](=O)[O-])c1)c1ccc([N+](=O)[O-])cc1[N+](=O)[O-] | inactive: -7.89%
70 | O=C(c1cccnc1)N(Cc1cccnc1)C1CCN(CCc2cccs2)CC1 | inactive: 9.87%
71 | CCC(C(=O)OC1CN2CCC1CC2)c1ccccc1 (centres undefined) | inactive: -2.52%
72 | CCOP(=O)(Nc1cccc2ccccc12)OCC | inactive: 9.34%

Row | SMILES | inhibition
73 | Cc1cc(NC(=O)NP(=O)(O)O)n(-c2ccccc2)n1 | inactive: 28.4%
74 | CCOP1(=O)N=C(c2ccc(Br)cc2)NC(=O)N1 (centres undefined) | inactive: -4.13%
75 | CN(C(=O)Cc1ccc(Cl)c(Cl)c1)[C@@H]1CC[C@]2(CCCO2)C[C@H]1N1CCCC1 | inactive: 12.5%
76 | COc1cc(-n2cnnn2)ccc1-n1cnnn1 | inactive: 4.15%
77 | BrCC1CN=C(Nc2ccccc2)S1 (centres undefined) | inactive: -3.74%
78 | CC(C)OP(=O)(OC(C)C)C(=O)c1ccco1 | active: 70.4%
79 | Cc1cccc(OCC(=O)OC2CN3CCC2CC3)c1 (centres undefined) | inactive: 14.3%
80 | Cc1cc(Br)c(Nc2c([N+](=O)[O-])cc([N+](=O)[O-])c3nonc23)cc1[N+](=O)[O-] | inactive: -6.27%
81 | COP(=O)(Nc1ccc(C)cc1)OC | inactive: -2.81%
82 | Cc1ncc(-c2ccccc2)c2ccccc12 | inactive: -5.83%
83 | NC(=O)Nc1ccc([As](=O)(O)O)cc1 | inactive: 16.6%
84 | O=C(COC(=O)C(O)(c1ccccc1)c1ccccc1)NC(=O)NCc1ccccc1 | inactive: 2.65%
85 | O=[N+]([O-])c1ccc(N/N=C/c2ccc(Cl)c([N+](=O)[O-])c2)c([N+](=O)[O-])c1 | inactive: -14.9%
86 | Cc1ccc(NC2=NCC(CBr)S2)cc1 (centres undefined) | inactive: -8.88%
87 | NC(=O)c1nsnc1NCCCl | inactive: -2.35%
88 | CC(=O)c1cccc(NC(=O)N(Cc2ccco2)C2CCN(CCc3ccccn3)CC2)c1 | inactive: -17.1%
89 | O=C(Oc1ccc([N+](=O)[O-])cc1[N+](=O)[O-])c1cc([N+](=O)[O-])cc([N+](=O)[O-])c1 | inactive: -2.15%
90 | O=[N+]([O-])c1cccc(P(=O)(Nc2ccccn2)c2cccc([N+](=O)[O-])c2)c1 | inactive: -3.14%
91 | CC1(C)Nc2ccccc2OP1(=O)c1ccccc1 (centres undefined) | inactive: 3.39%
92 | Cc1ccnc(NP2(=O)C=C(c3ccccc3)OC(c3ccccc3)=C2)c1 | inactive: 10.4%
93 | CN(C(=O)Cc1ccccc1)[C@@H]1CC[C@]2(CCCO2)C[C@H]1N1CCCC1 | inactive: 23.6%
94 | CCOC(=O)NC(Sc1cc(C)ncn1)C(Cl)(Cl)Cl (centres undefined) | inactive: 5.11%
